# High-throughput results as filed in PubChem BioAssay.
# Hits are enriched below; roughly 2.3% of the tested compounds scored in any of these assays.
# ARFGAP1 inhibitor: inhibits rat ARF GTPase activating protein 1; AID 651572; inhibition, % at 16.5 µM; Arfgap1-stimulated ARF1 GTP hydrolysis, GDP FP detection; actives 0.26% (n = 360,000);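 active means inhibition above a per-plate limit, mean inhibition of low control wells plus 3 SD, cut at about 25% in these data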;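 further: 0% = DMSO wells with enzyme and 100% = wells lacking Arfgap1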
#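 Material: truncated rat Arfgap1 GAP domain; Incubation: compound-enzyme preincubation 20 min, reaction 120 min, detection 60 min, 25 °C; Read-out: percent inhibition of Arfgap1-stimulated GTP hydrolysis; Technique: FP, GDP Alexa 633 tracer displaced from anti-GDP antibody, 620/688 nm; Controls: No-Arfgap1 wells (100%) versus DMSO full-reaction wells (0%); Replication: single well per compound.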
# MC4R antag cAMP: blocks human MC4R cAMP signaling; P32245; MC4R-expressing cells, MTII-stimulated cAMP, LANCE TR-FRET; inhibition, % at 6.5 µM; actives 0.48% (n = 360,000); AID 540295;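 active means inhibition above its plate's cutoff, the mean of tested wells on that plate plus 3 SD, cut at about 29% in these data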;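 further: 0% = Melanotan II alone and 100% = Melanotan II plus saturating MCL0020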
#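 System: U2OS-MC4R stable cell line; Technique: Eu-cAMP/anti-cAMP TR-FRET, emission 671 nm; Repeats: single well per compound; Also added: Melanotan II; Dosing: one concentration, 6.5 µM nominal; Schedule: 30-min compound, 1-h challenge, 1-h detection, room temperature.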
# MC4R ag barr: human MC4R agonism via beta-arrestin; P32245; U2OS MC4R beta-arrestin complementation, luminescence; percent of melanotan II response, DMSO zero; activation, % at 8.9 µM; actives 0.98% (n = 360,000);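 active means activation above a per-plate cutoff, the mean activation of sample wells on that plate plus 3 SD, cut at about 8% in these data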
# CendR NRP1 mod: NRP-1/CendR interaction modulation | inhibition, % at 25 µM | actives 0.85% (n = 360,000) | FAM-RPARPAR peptide binding to NRP-1, fluorescence polarization | O14786;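 active means inhibition or corrected inhibition above about 18%, plus a signal ratio from 0.5 to 1.5, limit read from the data, passing the limit was not always enough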
# Yeast UUG start: yeast start codon fidelity modulation | S. cerevisiae UUG-firefly luciferase reporter, luminescence/redox ratio | activity score, % at 18.7 µM | hit rate 0.13% among 350,000 | AID 602363;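 active means replicate mean at a twofold rise or more, about +100% in these data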;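 further: firefly luciferase made from a UUG start codon reports start codon fidelity; reporter light over untreated wells divided by growth signal over untreated wells; some hits fall short of that in this replicate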
# ASAP1 GAP inh: blocks human ASAP1-stimulated Arf1 GTP hydrolysis; Q9ULH1; GDP FP detection; inhibition, % at 16.5 µM; actives 0.19% (n = 360,000); AID 624377; in the data active means inhibition above about 25%;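 further: 0% = vehicle with enzyme and substrate and 100% = no enzyme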
# * hit, by the source's call; . = no result.
SMILES,ARFGAP1 inhibitor,MC4R antag cAMP,MC4R ag barr,CendR NRP1 mod,Yeast UUG start,ASAP1 GAP inh
Cc1noc(C)c1S(=O)(=O)Nc1ccc2c(c1)C(=O)N([C@H](C)CO)C[C@@H](C)[C@H](CN(C)CC1CCCCC1)O2,.,.,.,.,-11,.
CC(C)N1CC2=C(OC(N)=C(C#N)C2c2cccnc2)/C(=C/c2cccnc2)C1 (centres undefined),-4,-3,-3,26*,-20,-5
Cc1nn(-c2ccccc2)nc1CNC(=O)C1CCC1,3,4,-1,25*,.,4
C[C@@H]1CN([C@@H](C)CO)C(=O)c2cc(NS(=O)(=O)c3cccs3)ccc2O[C@@H](C)CCCCO[C@@H]1CN(C)S(=O)(=O)c1ccccc1,.,.,.,.,-16,.
CN(C)c1cc(N/N=C\c2ccccc2)nc(N(C)C)n1,2,13,8.5*,35*,.,2
O=C(NCC[C@H]1CC[C@H](NC(=O)C2CCCC2)[C@@H](CO)O1)c1ccc(F)cc1,.,.,.,.,-11,.
CC1=CC(C)(C)NC(=S)N1c1cc(C)cc(C)c1,12,6,-1,7,.,-6
CC1=CC(C)(C)NC(=S)N1c1ccc(N(C)C)cc1,7,-8,-3,24*,-18,-7
COc1ccc(NC(=O)Nc2ccc3c(c2)C(=O)N([C@H](C)CO)C[C@@H](C)[C@H](CN(C)C)O3)cc1,.,.,.,.,4,.
C[C@@H](NC(=O)C[C@@H]1C=C[C@@H](NC(=O)C2CCOCC2)[C@@H](CO)O1)c1ccccc1,.,.,.,.,-11,.

# Part of the list above in order of molar mass, high to low.
SMILES,ARFGAP1 inhibitor,MC4R antag cAMP,MC4R ag barr,CendR NRP1 mod,Yeast UUG start,ASAP1 GAP inh
C[C@@H](NC(=O)C[C@@H]1C=C[C@@H](NC(=O)C2CCOCC2)[C@@H](CO)O1)c1ccccc1,.,.,.,.,-11,.
O=C(NCC[C@H]1CC[C@H](NC(=O)C2CCCC2)[C@@H](CO)O1)c1ccc(F)cc1,.,.,.,.,-11,.
CC(C)N1CC2=C(OC(N)=C(C#N)C2c2cccnc2)/C(=C/c2cccnc2)C1 (centres undefined),-4,-3,-3,26*,-20,-5
CN(C)c1cc(N/N=C\c2ccccc2)nc(N(C)C)n1,2,13,8.5*,35*,.,2

# (list continues)
SMILES,ARFGAP1 inhibitor,MC4R antag cAMP,MC4R ag barr,CendR NRP1 mod,Yeast UUG start,ASAP1 GAP inh
O=C1C=CC(=O)N1c1ccc2c(c1)Cc1cc(F)ccc1-2,0,32*,0,-21,-10,-10
CC(=O)Nc1ccc2c(c1)Cc1cc(N3C(=O)C=CC3=O)ccc1-2,2,-34,-3,15,-24,9
CCS(=O)(=O)N1CCN(c2ccc([N+](=O)[O-])c(NCc3ccccc3)c2)CC1,11,1,1,5,240*,16
CCOc1ccc(S(=O)(=O)NC2=NCCCCC2)cc1,-4,5,-2,18*,1,-1
O=S(=O)(NC1=NCCCCC1)c1ccc(Cl)cc1,2,-1,0,6,-5,23
Cn1c(=O)c2c(nc(CN3CCOCC3)n2CCN2CCOCC2)n(C)c1=O,.,-6,-2,27*,12,.
CCCCn1c(CN2CCOCC2)nc2c1c(=O)n(C)c(=O)n2C,-3,8,1,-1,-16,-1
Cn1c(=O)c2c(nc(CN3CCN(C(=O)c4ccco4)CC3)n2Cc2ccc(F)cc2)n(C)c1=O,-6,-4,-1,28*,-7,7
Cc1ccccc1S(=O)(=O)N[C@@H]1CC[C@@H](CCn2cc(-c3ccc(F)cc3)nn2)O[C@@H]1CO,.,.,.,.,5,.
COc1cccc(-c2nc(NC3CCCC3)c3ccccc3n2)c1O,0,21,0,-4,-5,4
COc1cccc(-c2nc(NCc3ccco3)c3ccccc3n2)c1O,8,-13,18*,-20,-9,14
C=CCNc1nc(-c2cccc(OC)c2O)nc2ccccc12,5,-10,9.4*,0,-7,9
Cc1ccc(-c2nc(NCc3ccco3)c3ccccc3n2)cc1,7,-5,-2,-10,.,-5
CN(C)C(=O)C[C@H]1CC[C@@H]2[C@H](COC[C@H](O)CN2CC2CCCCC2)O1,.,.,.,.,-1,.
OCC1(Cc2cccc(C(F)(F)F)c2)CCN(Cc2cc3ccccc3o2)CC1,8,19,9.2*,-12,.,-3
Cc1ccc(CNS(=O)(=O)c2ccc(-c3cnc(C4CC4)o3)cc2)cc1,-11,6,-1,21*,8,-9
CCOC(=O)c1c(C)[nH]c(C(=O)COC(=O)CCSc2ccccc2)c1C,-8,12,6,-6,-16,-10
Cc1c(C(=O)OCC[N+]2(C)CCCCC2)oc2ccccc12,-19,4,3,48*,-3,2
CCOC(=O)c1c(C)[nH]c(C(=O)COC(=O)c2oc3ccccc3c2C)c1C,-3,-3,8.3*,-16,-8,0
CCOC(=O)c1c(C)[nH]c(C(=O)CSc2ccccc2)c1C,16,-5,8.4*,-8,-32,-6
